Screening results (PubChem BioAssay)
An excerpt weighted towards active compounds, which were near 3.7% of everything screened.
miR-21 reporter = raises the signal of a miR-21 reporter | HeLa miR-21 FLuc reporter, luciferase, 48 h | Potency, µM (highest dose often 38.3 µM), inactives show at the highest dose reporter change, positive = more light | 340,000 tested, under 10 active | AID 2288; active = well fitted rising curve with a large enough effect; inconclusive = small, poorly fitted or top-dose-only effect; inactive = no such curve, though single readings can be large or run the other way;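 note: % of control where 0% means no effect; miR-21 action dims this reporter so a rising signal means less miR-21 action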
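HeLa miR-21-FLuc reporter line, endogenous miR-21; 2000 cells/well in DMEM/10% FBS; compound titration up to ~40uM final, 48 h, 37 degree Celsius; luciferase detection reagent, 15 min lysis, CCD luminescence.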
A549 viability = A549 cytotoxicity, counter-screen for Nrf2 inhibitors. A549 ARE-Fluc cells, CellTiter-Fluor viability, 18-24 h. Potency, µM (top dose mostly 46 µM), for the others: top-dose activity change, negative = cytotoxicity, most hits filed as inhibitors. 390,000 tested, 0.16% active; note: potency is the fitted concentration of half-maximal effect; % is set by controls: 0 for no effect and ±100 for the full control effect
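A549 ARE_Fluc cells in 5% FBS OPTI-MEM were exposed to compounds in concentration-response for 18-24 h at 37 deg C. Viability was read by CellTiter-Fluor fluorescence (Ex 405/Em 525) after 30 min, before the luciferase read.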
Nrf2 inh = Nrf2 pathway inhibition | A549 ARE-Fluc reporter, luciferase luminescence, 18-24 h | Potency, µM (titrated, usually from 46 µM), inactives show at the highest dose activity change, negative = inhibition, most hits filed as inhibitors | 360,000 tested, 2.1% active | AID 504444; note: potency is the fitted concentration of half-maximal effect; % is set by controls: 0 for no effect and ±100 for the full control effect; nearly all actives have a fitted effect of over 60% in size
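Reporter: ARE-Fluc in A549. Exposure: 18-24 h, 37 °C, 5% CO2, 5% FBS OPTI-MEM. Readouts: fluorescent cytotoxicity (CellTiter-Fluor), then luminescent Nrf2 signal after BugLite.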
Nrf2 ARE act = Nrf2 pathway activation; 410,000 tested, 0.31% active; Potency, µM (series often up to 46.1 µM), for inactives: at the top dose activation, most hits filed as activators; AREc32 ARE-luciferase reporter (MCF7-derived line), luminescence, 24 h; note: potency is the fitted concentration of half-maximal effect; % of control where 0% means no effect; nearly all actives have a fitted effect of over 65% in size
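AREc32_Fluc, 1000 cells/well, OPTI-MEM + 5% FBS, o/n 37 deg C 5% CO2; 23 nL cpd by pin tool, 24 hr; Steady-Glo 30 min RT, luminescence.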
ClpP mod = qHTS Assay for Activators of ClpP; ATP-dependent Clp protease proteolytic subunit (Bacillus subtilis (strain 168)), P80244; purified B. subtilis ClpP, FRET peptide cleavage, 20 min; Potency, µM (highest dose often 57.5 µM), without a hit: at the top dose activity change, negative = active; 340,000 tested, 1.9% active; AID 651965, 2013; active = well fitted falling curve with a large enough effect; inconclusive = small, poorly fitted or top-dose-only effect; inactive = no such curve, though single readings can be large or run the other way; note: potency is the fitted concentration of half-maximal effect; the source files actives as falling curves though it sought activators and does not explain the sign; nearly all actives have a fitted effect of over 65% in size
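Buffer: 100 mM Tris/HCl pH8, 100 mM KCl, 0.05% low protease BSA, 2.5% glycerol, 0.01% Tween-20. ClpP 10 microg/mL final; 20 min RT; delta FRET normalized to ADEP and DMSO controls.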
TCR activator = activators of T cell receptors. primary human leukocytes, anti-CD3, IL-2 HTRF, 48 h. Potency, µM (highest dose often 9.22 µM), for the others: at the top dose activation of IL-2 secretion, hits mostly activators. 330,000 tested, under 10 active; note: % of control where 0% means no effect
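Compounds are tested in HTS on primary human leukocytes co-incubated with a-CD3 beads for 48 hr. IL-2 output is measured by time-resolved FRET.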
The depositor's hits bear a star; [ ] = another dose, or the depositor's remark. Unless noted, calls come from the whole dose curve; as a rule, active = well fitted curve in the direction sought with a large enough effect; inconclusive = small, poorly fitted or top-dose-only effect, or another doubt; inactive = no such curve, though single readings can be large; an effect the other way counts as inactive or inconclusive.

The chains behind the UniProt entries cited, without tags or fusion partners.
ATP-dependent Clp protease proteolytic subunit (Bacillus subtilis (strain 168)), P80244, UniProt P80244, whole entry, looked up: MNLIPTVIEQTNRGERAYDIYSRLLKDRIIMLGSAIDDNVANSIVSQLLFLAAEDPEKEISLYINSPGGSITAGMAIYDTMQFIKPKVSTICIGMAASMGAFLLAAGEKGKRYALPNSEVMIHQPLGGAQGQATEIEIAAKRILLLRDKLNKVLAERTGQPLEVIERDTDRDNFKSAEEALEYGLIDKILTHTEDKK

Start of the listing, in advance (three entries):
Results for Cc1c(C(=O)N(Cc2cccc(Br)c2)C2CCS(=O)(=O)C2)oc2ccc(F)cc12 (configuration not stated) ?
miR-21 reporter: 9%; A549 viability: -12%; Nrf2 inh: inconclusive; Nrf2 ARE act: 1%; ClpP mod: -1%; TCR activator: -8%

Results for CCCCCCCCCCCCCCCC[n+]1ccc(C(N)=O)cc1 ?
miR-21 reporter: 28%; A549 viability: -4%; Nrf2 inh: inconclusive; Nrf2 ARE act: 1%; ClpP mod: inconclusive; TCR activator: -3%[46.1 µM]

Results for CCCCCCCCCCCCCCCC[n+]1ccc(/C=N/O)cc1 ?
miR-21 reporter: inconclusive; A549 viability: -20%; Nrf2 inh: 16µM*; Nrf2 ARE act: -3%; ClpP mod: 2%; TCR activator: 2%[46.1 µM]

The whole of this part, from the start:
Results for Cc1c(C(=O)N(Cc2cccc(Br)c2)C2CCS(=O)(=O)C2)oc2ccc(F)cc12 (configuration not stated) ?
miR-21 reporter: 9%; A549 viability: -12%; Nrf2 inh: inconclusive; Nrf2 ARE act: 1%; ClpP mod: -1%; TCR activator: -8%

Results for CCCCCCCCCCCCCCCC[n+]1ccc(C(N)=O)cc1 ?
miR-21 reporter: 28%; A549 viability: -4%; Nrf2 inh: inconclusive; Nrf2 ARE act: 1%; ClpP mod: inconclusive; TCR activator: -3%[46.1 µM]

Results for CCCCCCCCCCCCCCCC[n+]1ccc(/C=N/O)cc1 ?
miR-21 reporter: inconclusive; A549 viability: -20%; Nrf2 inh: 16µM*; Nrf2 ARE act: -3%; ClpP mod: 2%; TCR activator: 2%[46.1 µM]

How did C/C(=N/NC(=O)CNC(=O)/C=C/c1ccco1)c1ccc(Cl)cc1 do in these assays?
miR-21 reporter: -4%; A549 viability: 8%; Nrf2 inh: 3%; Nrf2 ARE act: inconclusive; ClpP mod: 28µM*; TCR activator: 13%

What do the screens show for `CC(/C=C/c1ccco1)=N\NC(=O)CNc1ccc2ccccc2c1`?
miR-21 reporter: -7%; A549 viability: 0%; Nrf2 inh: 0%; Nrf2 ARE act: 10µM*; ClpP mod: -1%; TCR activator: -3%

Results for Oc1ccc2ccccc2c1CN1CCN(c2ccccc2F)CC1 ?
miR-21 reporter: -8%; A549 viability: -4%; Nrf2 inh: 4%; Nrf2 ARE act: 0%; ClpP mod: 11µM*; TCR activator: 1%[46.1 µM]

Results for CCc1ccc(CNC(=O)c2cnc3sc4cc(OC)ccc4n3c2=O)cc1 ?
miR-21 reporter: -2%; A549 viability: 8%; Nrf2 inh: 7%; Nrf2 ARE act: 0%; ClpP mod: -7%

How did O=C(Nc1cc(C(F)(F)F)ccc1Cl)c1ccc(NC(=O)C(F)(F)F)cc1 do in these assays?
miR-21 reporter: -32%; A549 viability: 6%; Nrf2 inh: inconclusive; Nrf2 ARE act: 5%; ClpP mod: -2%; TCR activator: -3%[46.1 µM]

What do the screens show for `CCCC(=O)Nc1ccc(C(=O)Nc2cc(C(F)(F)F)ccc2Cl)cc1`?
miR-21 reporter: 6%; A549 viability: -14%; Nrf2 inh: 10µM*; Nrf2 ARE act: 0%; ClpP mod: 4%; TCR activator: -6%

How did CC1CCN(CCNC(=O)c2ccc(Cn3c(SCc4ccccc4)nc4cccnc43)cc2)CC1 do in these assays?
miR-21 reporter: -23%; A549 viability: inconclusive; Nrf2 inh: 16%; Nrf2 ARE act: 8%; ClpP mod: 16µM*

Results for O=C(NCCN1CCCCC1)c1ccc(Cn2c(SCc3ccccc3)nc3cccnc32)cc1 ?
miR-21 reporter: 48%; A549 viability: -23%; Nrf2 inh: 22%; Nrf2 ARE act: 6%; ClpP mod: inconclusive

Results for Cc1ccc(Cn2c(SCc3ccc(C(=O)O)cc3)nc3cccnc32)cc1 ?
miR-21 reporter: -16%; A549 viability: 1%; Nrf2 inh: 13%; Nrf2 ARE act: 3%; ClpP mod: 28µM*

How did CC1CCCCN1CCNC(=O)c1ccc(Cn2c(SCc3ccccc3)nc3cccnc32)cc1 (configuration not stated) do in these assays?
miR-21 reporter: -60%; A549 viability: -13%; Nrf2 inh: inconclusive; Nrf2 ARE act: 7%; ClpP mod: 25µM*

Results for COc1ccc(Cn2c(SCc3ccc(C(=O)NC4CCCCC4)cc3)nc3cccnc32)cc1 ?
miR-21 reporter: 2%; A549 viability: inconclusive; Nrf2 inh: 18µM*; Nrf2 ARE act: 5%; ClpP mod: 5%

How did Cc1ccc(CC2SC(N=C(N)N)=NC2=O)cc1 (configuration not stated) do in these assays?
miR-21 reporter: -1%; A549 viability: 3%; Nrf2 inh: 1%; Nrf2 ARE act: 2%; ClpP mod: -3%; TCR activator: 4%

Results for O=C(c1cccc(Cl)c1)N1CCC(C(=O)N2CCN(Cc3ccccc3)CC2)CC1 ?
miR-21 reporter: 10%; A549 viability: 7%; Nrf2 inh: -27%; Nrf2 ARE act: 2%; ClpP mod: 28µM*; TCR activator: 6%

Results for Cc1ccc(S(=O)(=O)N2C[C@@H]3CCCC[C@@H]3[C@@H](C)[C@H]2CC(=O)c2ccccc2)cc1 ?
A549 viability: 0%; Nrf2 inh: -2%; Nrf2 ARE act: -1%; ClpP mod: -1%; TCR activator: -9%[46.1 µM]

What do the screens show for `Cc1ccc2ncnc(Nc3ccc(C)c(C)c3)c2c1`?
miR-21 reporter: 1%; A549 viability: -1%; Nrf2 inh: 15µM*; Nrf2 ARE act: 3%; ClpP mod: -10%; TCR activator: 3%

How did CCCOC(=O)c1c(NC(=O)C(C)Sc2nc(-c3ccccc3)cc(C(F)(F)F)n2)sc(C(=O)N(C)C)c1C (configuration not stated) do in these assays?
miR-21 reporter: 29%; A549 viability: -22%; Nrf2 inh: 21µM*; Nrf2 ARE act: 3%; ClpP mod: -8%

How did CCN(CC)C(=O)c1sc(NC(=O)C(C)Sc2nc(-c3ccccc3)cc(C(F)(F)F)n2)c(C(=O)OC)c1C (configuration not stated) do in these assays?
miR-21 reporter: 17%; A549 viability: -12%; Nrf2 inh: inconclusive; Nrf2 ARE act: 5%; ClpP mod: -5%

Results for CNc1ccc2ncc(-c3ccccc3NC(C)=O)n2n1 ?
Nrf2 ARE act: 1%[9.22 µM]; ClpP mod: 4%

How did [O-]/C(=C(\C(=S)Nc1ccc(SC(F)F)cc1)[n+]1ccccc1)c1cc(Cl)ccc1Cl do in these assays?
miR-21 reporter: 3%; A549 viability: inconclusive; Nrf2 inh: 21µM*; Nrf2 ARE act: 0%; TCR activator: 4%

What do the screens show for `CC[C@H](C)[C@@H](CO)NC(=O)[C@H]1O[C@@H](n2ccc(=O)[nH]c2=O)[C@H](O)[C@@H]1O`?
Nrf2 ARE act: -1%; ClpP mod: 2%

What do the screens show for `Cc1nc2ccc(S(=O)(=O)Nc3cccc(-c4nc5cccnc5s4)c3C)cc2s1`?
miR-21 reporter: 6%; A549 viability: -9%; Nrf2 inh: 23µM*; Nrf2 ARE act: -3%; ClpP mod: 0%; TCR activator: 5%

How did Fc1ccc(N/N=C/c2ccc(N3CCOCC3)cc2)c(F)c1 do in these assays?
miR-21 reporter: -29%; A549 viability: 0%; Nrf2 inh: inconclusive; Nrf2 ARE act: 7%; ClpP mod: 35µM*; TCR activator: -1%
